# scFv variants of Ab-95 (light chain) against a SARS-CoV-2 spike peptide

From the AlphaSeq antibody data of Engelhart et al. 2022 (doi:10.1038/s41597-022-01779-4), copy in the FLAb collection.

Binding partner: SARS-CoV-2 spike HR2 peptide, sequence PDVDLGDISGINAS.

Parent: Ab-95, a human scFv built as VH, three GGGGS repeats, VL. Only the CDRs of the light chain vary.
VH: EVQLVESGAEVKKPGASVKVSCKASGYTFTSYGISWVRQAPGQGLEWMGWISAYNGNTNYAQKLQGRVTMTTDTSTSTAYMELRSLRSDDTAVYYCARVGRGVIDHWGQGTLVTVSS
VL: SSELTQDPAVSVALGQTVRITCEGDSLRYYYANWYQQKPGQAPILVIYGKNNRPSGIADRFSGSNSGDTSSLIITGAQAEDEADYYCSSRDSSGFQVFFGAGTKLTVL

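Library AAYL52 holds single substitutions and randomly drawn double and triple substitutions in the CDRs. Affinity was read by AlphaSeq, a pooled yeast mating assay with surface-displayed partners. Binding brings cells together so that they mate, and sequencing counts the barcode pairs among the diploids. Scores were corrected for input abundance and mapped to Kd with protein pairs of known affinity run in the same pool. Each pool was mated in three replicate cultures.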

Changes read parent residue, position, new residue, counted from the first residue of the VL shown.
Affinities are written as log10 Kd with Kd in nM; a lower number is a better binder.
"nd" marks a missing value. The strain was present, yet no cells mated with the target were sequenced in that replicate, which points to weak or no binding.
Background: pairings of library AAYL52 with three empty control strains gave a value in 28% of cases (median 3.91, 5th percentile 2.90). Values in that range, when seen in few replicates, are hard to tell from nonspecific mating. Also given: how often the same scFv was detected with the empty control strains.

S26T S55V D91A: 2.99, 3.76, 3.05 (controls 1 of 9).
L27S Y31C D91C: 5.29, 3.66, nd (controls 4 of 9).
G94T V97E F98H: 3.24, nd, nd (controls 3 of 9).
S55Q S89K V97T: nd, nd, 3.39 (controls 1 of 9).
Y31R N51Y S89V: nd, 3.95, 3.95 (controls 0 of 9).
Y30D S88I S92K: 3.16, 3.32, nd (controls 1 of 9).
G49T R53V S88G: 3.72, 3.19, 3.49 (controls 1 of 9).
Y31S S88R R90V: 2.00, 2.15, 1.74 (controls 4 of 9).
G24Q L27R Y31R: 3.96, nd, nd (controls 1 of 9).
R28V D91W F98L: nd, 4.22, 3.13 (controls 1 of 9).
R28E K50E Q96G: 2.26, 2.42, 2.01 (controls 5 of 9).
R28Y S89F S92R: 4.14, 3.65, 2.29 (controls 3 of 9).
A32N R53C S55M: nd, 4.42, nd (controls 4 of 9).
S88I S92P Q96W: 3.26, 2.87, 2.93 (controls 3 of 9).
P54E S55E S88A: 2.52, 2.64, 1.95 (controls 4 of 9).
Y31D S88Y F95P: 1.58, 1.31, 0.88 (controls 1 of 9).
N52K S92H S93K: 4.67, nd, nd (controls 1 of 9).
A32N R90W Q96N: nd, nd, nd (controls 1 of 9).
R28E N52G S89Q: 2.97, 3.42, 2.49 (controls 1 of 9).
L27R P54N F95G: nd, nd, nd (controls 1 of 9).
A32D K50Y N52Y: 3.52, nd, nd (controls 7 of 9).
L27S A32W N52G: nd, nd, nd (controls 0 of 9).
N51R S92R S93F: nd, 4.16, nd (controls 1 of 9).
G24H Y29W S92L: 3.35, 3.45, 2.52 (controls 3 of 9).
Y30E S55L F98T: 1.96, 1.85, 1.18 (controls 1 of 9).

Second part, the sequence after the result:

Read-out 5.36, nd, 3.93 (controls 3 of 9), from N51W P54C S93T.
Read-out nd, 4.51, nd (controls 1 of 9), from A32M R53W F98N.
Read-out 3.81, nd, nd (controls 2 of 9), from N51R R53P P54L.
Read-out 2.73, nd, nd (controls 3 of 9), from G24D L27N Q96V.
Read-out nd, nd, 2.93 (controls 5 of 9), from G24W S88L F95R.
Read-out 2.87, 3.04, 3.00 (controls 1 of 9), from A32Q S93N F98R.
Read-out 2.72, 2.14, 2.17 (controls 6 of 9), from E23N A32D N51D.
Read-out 3.50, 2.88, 3.74 (controls 3 of 9), from Y30P N33T N51Q.
Read-out 3.28, 2.73, 2.74 (controls 4 of 9), from E23V Y31V Q96L.
Read-out 2.28, 2.16, 2.05 (controls 2 of 9), from D25I S55Q S88T.
Read-out 3.70, nd, nd (controls 0 of 9), from G49N S93H Q96S.
Read-out 4.52, 4.85, nd (controls 4 of 9), from R28K Y29W G49C.
Read-out 2.90, 3.61, 2.83 (controls 4 of 9), from Y30V K50F.
Read-out 3.72, 3.11, 3.55 (controls 5 of 9), from Y29M K50H D91A.
Read-out 4.50, 5.25, 2.92 (controls 1 of 9), from L27C P54Q S92P.
Read-out 4.34, nd, nd (controls 4 of 9), from K50W R53E D91V.
Read-out 2.92, 2.82, 2.38 (controls 6 of 9), from N52G S55K F95N.
Read-out 2.38, 2.18, 1.43 (controls 4 of 9), from R90H S92H.
Read-out 1.47, 1.23, 1.12 (controls 2 of 9), from Y29G S88L R90D.
Read-out 4.19, 3.26, 3.41 (controls 2 of 9), from N33Q N52C G94T.
Read-out 3.65, 4.88, nd (controls 2 of 9), from Y29V S93I F98P.
Read-out 3.02, 3.61, 4.28 (controls 3 of 9), from L27A Y30M F98L.
Read-out 2.49, 2.54, 3.49 (controls 3 of 9), from R53H S93G.
Read-out 2.98, nd, nd (controls 1 of 9), from E23N L27H S88L.
Read-out 3.52, 3.16, 2.67 (controls 5 of 9), from P54R R90D F98C.

Excerpt, the first 6 entries:

| changes | replicates, log10 nM | signal with controls |
|---|---|---|
| S26T S55V D91A | 2.99, 3.76, 3.05 | 1 of 9 |
| L27S Y31C D91C | 5.29, 3.66, nd | 4 of 9 |
| G94T V97E F98H | 3.24, nd, nd | 3 of 9 |
| S55Q S89K V97T | nd, nd, 3.39 | 1 of 9 |
| Y31R N51Y S89V | nd, 3.95, 3.95 | 0 of 9 |
| Y30D S88I S92K | 3.16, 3.32, nd | 1 of 9 |